Compound activity: PubChem BioAssay, several laboratories
MC4R antag cAMP: human MC4R antagonism in cAMP assay; MC4R-expressing cells, MTII-stimulated cAMP, LANCE TR-FRET; inhibition, % at 6.5 µM; 360,000 tested, 0.48% active;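 active = inhibition above its plate's cutoff, the mean of tested wells on that plate plus 3 SD, cut at about 29% in these data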;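 note: 0% = Melanotan II alone and 100% = Melanotan II plus saturating MCL0020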
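Assay system: U2OS-MC4R stable cell line; Also added: Melanotan II; Technique: Eu-cAMP/anti-cAMP TR-FRET, emission 671 nm; Times: 30-min compound, 1-h challenge, 1-h detection, room temperature.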
CendR NRP1 mod: NRP-1/CendR interaction modulation; O14786; FAM-RPARPAR peptide binding to NRP-1, fluorescence polarization; inhibition, % at 25 µM; 360,000 tested, 0.85% active; AID 602438;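 active = inhibition or corrected inhibition above about 18%, plus a signal ratio from 0.5 to 1.5, limit read from the data, passing the limit was not always enough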
MC4R barr agon: human MC4R agonism via beta-arrestin; P32245; U2OS MC4R beta-arrestin complementation, luminescence; percent of melanotan II response, DMSO zero; AID 540308; activation, % at 8.9 µM; 360,000 tested, 0.98% active;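 active = activation above a per-plate cutoff, the mean activation of sample wells on that plate plus 3 SD, cut at about 8% in these data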
ASAP1 inh: blocks human ASAP1-stimulated Arf1 GTP hydrolysis. Q9ULH1. GDP FP detection. AID 624377. inhibition, % at 16.5 µM. 360,000 tested, 0.19% active; in the data active = inhibition above about 25%;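 note: 0% = vehicle with enzyme and substrate and 100% = no enzyme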
Yeast UUG start: modulators of yeast start codon fidelity, primary screen, whole organism, S. cerevisiae, single point, plate reader | AID 602363, 2012 | actives 0.13% (n = 350,000) | activity score, % at 18.7 µM | S. cerevisiae UUG-firefly luciferase reporter, luminescence/redox ratio;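 active means replicate mean at a twofold rise or more, about +100% in these data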;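 further: firefly luciferase made from a UUG start codon reports start codon fidelity; reporter light over untreated wells divided by growth signal over untreated wells; some hits fall short of that in this replicate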
ARFGAP1 inhibitor: rat ARFGAP1 inhibition; 360,000 tested, 0.26% active; inhibition, % at 16.5 µM; Arfgap1-stimulated ARF1 GTP hydrolysis, GDP FP detection; AID 651572;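 active = inhibition above a per-plate limit, mean inhibition of low control wells plus 3 SD, cut at about 25% in these data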;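 note: 0% = DMSO wells with enzyme and 100% = wells lacking Arfgap1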
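System: truncated rat Arfgap1 GAP domain / Benchmarks: high control wells lacking Arfgap1, low control full reaction with DMSO / Times: compound-enzyme preincubation 20 min, reaction 120 min, detection 60 min, 25 °C / Repeats: one replicate per compound / Also added: human ARF1(Δ1-17)-GTP substrate / Measured by: Tracer-displacement fluorescence polarization with EDTA stop, 620/688 nm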
* marks the source's active call; other numbers are inactive results; . = not tested or not shown. Only some compounds are listed: those with a hit (about 2.3% of all), similar ones and a draw of the others.

smiles,MC4R antag cAMP,CendR NRP1 mod,MC4R barr agon,ASAP1 inh,Yeast UUG start,ARFGAP1 inhibitor
CCOc1ccccc1N1CCN(C(=O)c2ccncc2)CC1,6,43*,4,2,.,1
Nc1cc(S(=O)(=O)N2CCCCC2)ccc1Oc1ccc(Cl)cc1,7,6,0,7,.,3
Nc1cc(S(=O)(=O)N2CCOCC2)ccc1Oc1ccc(F)cc1,-4,28*,-2,7,-4,4
Cc1ccc(S(=O)(=O)N2CCN(C(=O)c3ccccn3)CC2)cc1,5,11,0,-3,-14,-8
O=C(c1ccccn1)N1CCN(S(=O)(=O)c2ccccc2)CC1,5,24*,1,1,-3,-11
CCc1cc(C(=O)OC)c(NC(=O)c2ccoc2C)s1,-5,39*,-2,-5,-15,5
CCc1cc(C(=O)OC)c(NC(=O)c2cc(Br)cs2)s1,9,6,5,.,-18,.
Cc1ccc(NCC(=O)c2ccccc2)cc1Cl,6,-18,4,1,-11,-6
Cc1ccc(C(=O)CNc2ccc(C)c(Cl)c2)cc1,-2,30*,2,9,.,1
O=C(NCc1cccc(F)c1)c1cccc(OC2CCN(C(=O)C3CC3)CC2)c1,4,24*,-3,0,5,14
COCc1cn(CC[C@@H]2CC[C@H](NC(=O)Cc3cccnc3)[C@@H](CO)O2)nn1,.,.,.,.,-9,.
O=C(O/N=C1/CCSc2ccccc21)c1ccccc1,4,26*,-2,-7,-34,5
Cc1ccc2c(c1)/C(=N/OC(=O)c1ccc(F)cc1)CCS2,7,4,5,3,-6,-2
O=C(Cc1ccncc1)NCC[C@@H]1CC[C@H](NC(=O)Nc2ccc(Cl)cc2)[C@H](CO)O1,.,.,.,.,-13,.
CC(C)(C)OC(=O)N1O[C@H]2CC1[C@@H]1[C@@H]2N=NN1CCc1ccncc1,3,23*,-2,4,-7,-3
CC(C)(C)OC(=O)N1O[C@H]2C[C@@H]1[C@@H]1[C@@H]2N=NN1C12CC3CC(CC(C3)C1)C2,9,2,4,3,-6,-3
O=C1CCCN1CCCNc1nc(NCc2cccs2)nc2ccsc12,11,26*,0,-6,-7,8
CCOc1ccc(C2C(C(=O)c3ccc(C)o3)=C(O)C(=O)N2c2cc(C)on2)cc1OC (centres undefined),9,21*,-3,-4,-9,-1
CCCOc1ccc(/C=C/C(=O)Nc2ccc([N+](=O)[O-])cc2C)cc1,1,4,-1,7,-5,-7
COc1ccc(C(=O)NC(=S)Nc2ccc([N+](=O)[O-])cc2C)cc1OC,-1,0,8.9*,8,-7,-15
CCCOc1ccc(/C=C/C(=O)Nc2ccc([N+](=O)[O-])cc2C)cc1OC,7,4,12*,-12,-34,-5
CN(C)CC(=O)Nc1ccc2c(c1)[C@H]1C[C@H](CC(=O)NCc3ccccc3)O[C@H](CO)[C@H]1O2,.,.,.,.,15,.
Cc1[nH]n(-c2ccc([N+](=O)[O-])cc2)c(=O)c1C=NCCc1c[nH]c2ccccc12,5,1,8.4*,-3,-17,9
O=C(C[C@@H]1C=C[C@@H](NC(=O)c2ccccc2)[C@@H](CO)O1)Nc1ccc(-c2ccccc2)cc1,.,.,.,.,-2,.
CCCCCOc1ccc(Br)cc1CSC(=N)N,-23,35*,2,-9,.,2
CC(C)NC(=O)N1CCCCN2[C@H](CO)[C@@H](c3ccc(C#Cc4ccccc4)cc3)[C@H]2C1,.,.,.,.,11,.
CCN(CC)S(=O)(=O)c1ccc(/C=C/C(=O)O)cc1,4,33*,1,8,-16,7
CN1C(=O)c2oc3ccccc3c(=O)c2C1c1cccnc1 (centres undefined),-1,18,1,-3,-8,6
CN1C(=O)c2oc3ccccc3c(=O)c2C1c1ccccn1 (centres undefined),2,33*,0,-2,-9,-1
CCOC(=O)/C=C1\NC(=O)CS1,3,28*,-1,2,-6,4

Entries listed so far that contain a nitro group on carbon, in the order listed:
smiles,MC4R antag cAMP,CendR NRP1 mod,MC4R barr agon,ASAP1 inh,Yeast UUG start,ARFGAP1 inhibitor
CCCOc1ccc(/C=C/C(=O)Nc2ccc([N+](=O)[O-])cc2C)cc1,1,4,-1,7,-5,-7
COc1ccc(C(=O)NC(=S)Nc2ccc([N+](=O)[O-])cc2C)cc1OC,-1,0,8.9*,8,-7,-15
CCCOc1ccc(/C=C/C(=O)Nc2ccc([N+](=O)[O-])cc2C)cc1OC,7,4,12*,-12,-34,-5
Cc1[nH]n(-c2ccc([N+](=O)[O-])cc2)c(=O)c1C=NCCc1c[nH]c2ccccc12,5,1,8.4*,-3,-17,9

Later entries:
Results follow in this order: MC4R antag cAMP | CendR NRP1 mod | MC4R barr agon | ASAP1 inh | Yeast UUG start | ARFGAP1 inhibitor
CC(C)(C)C(=O)/C=C1\NC(=O)CS1
 : 6 | -14 | -2 | 0 | . | 1
C[C@@H]1CN([C@@H](C)CO)C(=O)c2cc(NC(=O)Nc3cccc4ccccc34)ccc2O[C@H]1CN(C)Cc1ccc(-c2ccccc2)cc1
 : . | . | . | . | -1 | .
CC(=O)N(C)C[C@H]1Oc2ncc(C#CCC3CCCC3)cc2C(=O)N([C@@H](C)CO)C[C@H]1C
 : . | . | . | . | -1 | .
O=C(NCCC1=CCCCC1)C1CC(=O)N(C2CCCCCC2)C1 (centres undefined)
 : 6 | 21* | -2 | -1 | 5 | -5
CC1CCN(c2nc(-c3cccnc3)nc3scc(-c4ccccc4)c23)CC1
 : 11 | -9 | 1 | 3 | . | -2
Clc1nc(-c2ccccn2)nc2scc(-c3ccccc3)c12
 : -1 | 30* | -4 | -17 | -26 | 7
C[C@@H]1CCCCO[C@H](CN(C)S(C)(=O)=O)[C@H](C)CN([C@@H](C)CO)C(=O)c2cc(NC(=O)Nc3ccc(F)cc3)ccc2O1
 : . | . | . | . | -7 | .
NC(=S)N=Nc1c(O)cc(O)c2[nH]c(=O)ccc12
 : -22 | 42* | -2 | -9 | . | -18
O=C(CSc1nnc2ccc(-c3ccc(F)cc3)nn12)N1CCCC1
 : 33* | 15 | 3 | 4 | . | -10
CCc1ccc(-c2ccc3nnc(SCC(N)=O)n3n2)cc1
 : 6 | 24* | -1 | 3 | 11 | 11
O=C(CSc1nnc2ccc(-c3ccc(F)cc3)nn12)NCC1CCCO1 (centres undefined)
 : 2 | 8 | 0 | -1 | . | -2
CCc1ccc(NC(=O)C(C)Nc2ccc(S(=O)(=O)NC(C)=O)cc2)cc1 (centres undefined)
 : 12 | 7 | -1 | -15 | -9 | 0
CC(=O)NS(=O)(=O)c1ccc(NC(=O)C(C)NS(=O)(=O)/C=C/c2ccccc2)cc1 (centres undefined)
 : 13 | 20* | 0 | 4 | -10 | 8
CCn1c(SCC(=O)NC2CCCc3ccccc32)nnc1-c1cccs1 (centres undefined)
 : -4 | 2 | -1 | 6 | -10 | 8
CCn1c(SC(C)C(=O)NC2CCCc3ccccc32)nnc1-c1cccs1 (centres undefined)
 : 9 | 34* | 2 | -3 | -1 | 0
CC(C)NC(=O)N(C)C[C@@H]1Oc2c(NS(=O)(=O)c3cn(C)cn3)cccc2C(=O)N([C@@H](C)CO)C[C@H]1C
 : . | . | . | . | 1 | .
CC(=O)CSc1nnc(-c2ccc(S(=O)(=O)N3CCOCC3)cc2)n1C
 : 0 | 0 | 0 | -11 | -2 | 14
